Laboratory results reported in BindingDB's records for PubMed 7903385 (Creighton University, 1993).

By UniProt entry, the sequences of proteins in these tests, tags left out. Residues count along the entry.
UniProt P18871, 16-465: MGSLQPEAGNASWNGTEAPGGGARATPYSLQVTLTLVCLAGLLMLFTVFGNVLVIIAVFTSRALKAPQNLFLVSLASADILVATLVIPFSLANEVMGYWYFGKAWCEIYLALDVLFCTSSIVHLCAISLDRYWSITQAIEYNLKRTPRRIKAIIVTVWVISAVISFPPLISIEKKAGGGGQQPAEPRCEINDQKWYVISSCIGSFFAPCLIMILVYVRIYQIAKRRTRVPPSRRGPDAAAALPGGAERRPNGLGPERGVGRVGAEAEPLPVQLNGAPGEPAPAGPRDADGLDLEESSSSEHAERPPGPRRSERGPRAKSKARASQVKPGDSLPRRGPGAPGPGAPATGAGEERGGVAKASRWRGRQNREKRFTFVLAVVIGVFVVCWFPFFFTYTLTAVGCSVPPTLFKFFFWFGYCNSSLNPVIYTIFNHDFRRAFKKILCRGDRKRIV

Biological target: Alpha-2A adrenergic receptor (Sus scrofa, UniProt P18871)

Work on `COC(=O)[C@@H]1[C@H]2C[C@H]3c4[nH]c5ccccc5c4CCN3C[C@@H]2CC[C@@H]1O` [yohimbic acid methyl ester] yielded a pKi of 9.59.

pKi: −log10 of the molar value.
